# Results: patent US20200199102A1, “COMPOUNDS THAT PARTICIPATE IN COOPERATIVE BINDING AND USES THEREOF” (Revolution Medicines, Inc., priority 2017, published 2020)
# Amino acid sequences for entries named in this document (tags omitted).
# UniProt P62937, whole entry: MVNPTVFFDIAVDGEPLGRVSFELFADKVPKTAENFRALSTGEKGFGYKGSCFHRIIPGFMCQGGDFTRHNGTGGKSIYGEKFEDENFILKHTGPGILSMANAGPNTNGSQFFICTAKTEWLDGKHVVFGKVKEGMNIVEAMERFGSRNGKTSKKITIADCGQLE
# Target: Cyclophilin A (Homo sapiens, UniProt P62937)
# Assay: AlphaLISA inhibition of binding of biotinylated Cyclosporin A to FLAG tagged Cyclophilin A
# Settings: test concentration not given
row,% signal,SMILES
1,0.40%,C/C=C/C[C@@H](C)[C@@H](O)[C@H]1C(=O)N[C@@H](CC)C(=O)N(C)CC(=O)N(C)[C@@H](C(C)C)C(=O)N[C@@H](C(C)C)C(=O)N(C)[C@@H](CC(C)C)C(=O)N[C@@H](C)C(=O)N[C@H](C)C(=O)N(C)[C@@H](CC(C)C)C(=O)N(C)[C@@H](CC(C)C)C(=O)N(C)[C@@H](C(C)C)C(=O)N1C
2,6.27%,C/C=C/C[C@@H](C)[C@@H](O)[C@H]1C(=O)N[C@@H](CC)C(=O)N(C)CC(=O)N(C)[C@H](C)C(=O)N[C@@H](CC(C)C)C(=O)N(C)[C@@H](C)C(=O)N[C@@H](C)C(=O)N[C@H](C)C(=O)N(C)[C@@H](CC(C)C)C(=O)N(C)[C@@H](CC(C)C)C(=O)N(C)[C@@H](C(C)C)C(=O)N1C
3,4.29%,C/C=C/C[C@@H](C)[C@@H](O)[C@H]1C(=O)N[C@@H](CC)C(=O)N(C)CC(=O)N(C)[C@H](C)C(=O)N[C@@H](C(C)C)C(=O)N(C)[C@@H](CC(C)C)C(=O)N[C@@H](CC(C)C)C(=O)N[C@H](C)C(=O)N(C)[C@@H](CC(C)C)C(=O)N(C)[C@@H](CC(C)C)C(=O)N(C)[C@@H](C(C)C)C(=O)N1C
